Usually inhibition stands for the drop in the measured response relative to a control, in per cent.

Amino acid sequences for entries named in this document (tags omitted).
UniProt P35372, whole entry, looked up: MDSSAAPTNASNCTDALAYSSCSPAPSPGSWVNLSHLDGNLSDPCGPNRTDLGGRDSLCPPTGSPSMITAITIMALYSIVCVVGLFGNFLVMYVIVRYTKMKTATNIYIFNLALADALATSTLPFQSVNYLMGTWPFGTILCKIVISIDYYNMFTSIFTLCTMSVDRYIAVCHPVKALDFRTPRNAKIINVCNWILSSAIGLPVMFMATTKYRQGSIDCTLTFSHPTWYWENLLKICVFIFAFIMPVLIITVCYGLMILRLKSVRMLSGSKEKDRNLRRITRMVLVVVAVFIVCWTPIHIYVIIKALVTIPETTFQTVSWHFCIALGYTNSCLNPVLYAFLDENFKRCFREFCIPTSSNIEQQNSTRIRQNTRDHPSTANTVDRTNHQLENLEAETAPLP
UniProt P41143, whole entry, looked up: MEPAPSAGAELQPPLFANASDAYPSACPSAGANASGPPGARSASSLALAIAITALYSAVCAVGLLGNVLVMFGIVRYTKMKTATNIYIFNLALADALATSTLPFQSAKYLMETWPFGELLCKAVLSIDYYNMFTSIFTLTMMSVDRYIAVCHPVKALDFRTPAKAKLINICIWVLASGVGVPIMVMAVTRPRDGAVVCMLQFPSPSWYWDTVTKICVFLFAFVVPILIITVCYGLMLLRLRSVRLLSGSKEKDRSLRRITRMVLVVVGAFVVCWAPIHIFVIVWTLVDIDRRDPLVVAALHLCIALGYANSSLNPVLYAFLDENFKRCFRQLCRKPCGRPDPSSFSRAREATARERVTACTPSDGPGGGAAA

The list shows a part of the results, in another mix than the full data. Active and inactive are the calls of the source. No stated cut-off is given here; in the data, active means inhibition above about 22% (passing the limit was not always enough); inactive means the rest.

This assay has as its target Mu-type opioid receptor (Homo sapiens) + Delta-type opioid receptor (Homo sapiens) (UniProt P35372+P41143). The assay is described as follows: OPRM1-OPRD1 heterodimer inverse agonism – cell-based, luminescence, primary screen (AID 504357).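 Further: 0% = cells with DMSO and 100% = wells without cells with DMSO.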 The following applies: cell-based MOR-DOR heterodimer luminescence, at 9.3 µM, active compounds read high.
Regarding `Cc1cccc(CSc2nc3ccncc3n2CC(=O)Nc2cc(C)cc(C)c2)c1`, the inhibition is inactive: 2.33%. `CC1CCN(C(=O)Cn2cnc3c2c(=O)n(C)c(=O)n3C)c2ccccc2S1` (stereo unspecified): the inhibition was inactive: 6.97%. For the compound `Cn1c(=O)c2c(nc(CN3CCC(Cc4ccccc4)CC3)n2CCN2CCOCC2)n(C)c1=O`, the inhibition is inactive: 0.76%. Consider `Cc1ccc(-c2csc(NCCn3c(C)nc4cc(C(F)(F)F)ccc43)n2)cc1`, for which the inhibition was inactive: -0.21%. With `O=C(Cn1c(C(F)(F)F)nc2ccccc21)N1CCCC1` the figure was inactive: 8.67%; with `Cc1ccc(NC(=O)Cn2cnc3c(=O)n(C)c(=O)n(C)c32)c(C)c1`, inactive: -0.24%.

Turning to `CCC(=O)Nc1cccc(C(=O)/C=C/c2ccc(F)cc2)c1`, the inhibition is inactive: 3.98%. For `Cc1ccsc1/C=N/NC(=O)Cn1cnc2ccccc21`, the inhibition is inactive: 5.76%. For `ClCCSc1nnc(-c2cccnc2)o1`, the inhibition is inactive: 14.1%.

Consider `Cc1nc2ccccc2n1CC(=O)NCCN1CCCC1`, for which the inhibition was inactive: 13%.

As to `CC1(C)c2ccccc2N2CCC(=O)NC21/C=C/c1ccco1` (stereo unspecified), the inhibition was inactive: 7.93%. With `CCOC(=O)CC[C@H](NC(=O)Cn1cnc2c(NCc3ccccc3)ncnc21)C(=O)OCC`, the inhibition is inactive: 13.9%. As for `COc1ccccc1NC(=O)N1CCn2c(nc3ccccc32)C1`, the inhibition is inactive: -5.97%. Turning to `CCC(=O)Nc1nc2ccccc2n1CCN(CC)CC`, the inhibition is inactive: -5.64%.

In the case of `N=c1n(CCN2CCCCC2)c2ccccc2n1CC(=O)c1cccc([N+](=O)[O-])c1`, the inhibition is inactive: -29.3%. With `Cc1ccc2c(c1)C1CN(C)CCC1N2C(=O)CCCN1C(=O)c2cccc3cccc(c23)C1=O` (stereo unspecified) the figure was inactive: 9.48%.

With `CC(C)NC(=O)Cn1c(SCC(=O)c2ccc(F)cc2)nc2ccccc21`, the inhibition was inactive: 3.95%. For the compound `Cc1cc(C)c(CN2CCN(C(=O)Cn3cnc4c(NCc5ccccc5)ncnc43)CC2)c(C)c1`, the inhibition is inactive: -25.6%. The result for `Cn1c(=O)c2c(ncn2CC(=O)N2CCN(c3cccc(Cl)c3)CC2)n(C)c1=O` reads inactive: 2.21%; that for `COC(=O)C1(C)COP(=O)(N2CCCCCC2)OC1` (stereo unspecified), inactive: 0.92%.

Consider `CCC(C(=O)NC1CCCCC1)n1c(SCc2ccccc2F)nc2ccncc21` (stereo unspecified), for which the inhibition was inactive: 11.4%. Take `CC(C)c1ccc(OP(=O)(Nc2ccccn2)Oc2ccccc2F)cc1` (stereo unspecified): the inhibition was inactive: -2.87%. With `c1csc(CNc2nc3ccccc3n2CCN2CCOCC2)c1` the figure was inactive: 15.4%; with `COC(=O)c1ccc(CNC(=O)Cn2cnc3c(SC)nc(N)nc32)cc1`, inactive: 19.1%; with `Cc1nc2ccccc2n1C1CCN(Cc2nnnn2CCc2ccccc2)CC1`, inactive: -1.21%. The result for `Oc1ccccc1CNc1nc2ccccc2n1CCN1CCCCC1` reads inactive: -1.82%.

(Values after PubChem BioAssay AID504357 (The Scripps Research Institute Molecular Screening Center, 2011).)
